Test results taken from patent publication US10828317B2, “Method of treating bacterial infections” (priority 2016, dated 2020).
Like-named read-outs stand apart in the source and are kept apart here.

System: E. cloacae strain no 6

With `O=c1[nH]c(=O)n([C@H]2C[C@H](O)[C@@H](CO)O2)cc1F` [FdUrd, Fluorodeoxyuridine] the “MIC FdUrd” value (trimethoprim 0, uridine 0 μg/ml) was greater than 30 µg/mL, the “MIC FdUrd” value (trimethoprim 0, uridine 10 μg/ml) was greater than 30 µg/mL and the “MIC FdUrd” value (trimethoprim 1, uridine 0 μg/ml) was greater than 2.5 µg/mL. For the same compound, the “MIC FdUrd” value (trimethoprim 1, uridine 10 μg/ml) was greater than 2.5 µg/mL.
